## Binding of CDR-mutated scFvs to a peptide of the spike HR2 region

Target peptide (SARS-CoV-2 spike, HR2 region): PDVDLGDISGINAS

Parent scFv Ab-91: VL joined to VH by three GGGGS repeats. Changes lie in the heavy chain CDRs alone.
VL: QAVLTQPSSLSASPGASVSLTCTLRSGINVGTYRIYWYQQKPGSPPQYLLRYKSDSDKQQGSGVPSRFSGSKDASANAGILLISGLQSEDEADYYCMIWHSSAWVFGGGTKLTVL
VH: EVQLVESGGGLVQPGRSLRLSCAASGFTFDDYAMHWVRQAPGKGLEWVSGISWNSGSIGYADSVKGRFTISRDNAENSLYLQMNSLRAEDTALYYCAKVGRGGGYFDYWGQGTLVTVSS

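Phage display of a naive human antibody library on the peptide gave the parent. Library AAYL51 holds single substitutions and randomly drawn double and triple substitutions in the CDRs. The scFvs were displayed on barcoded MATa yeast, the peptide on MATalpha yeast. Mating (16 h, 30 °C) was followed by selection of diploids and sequencing of their barcodes. Scores were corrected for input abundance and mapped to Kd with protein pairs of known affinity run in the same pool. Each pool was mated in three replicate cultures.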

Changes read parent residue, position, new residue, counted from the first residue of the VH shown.
Scale: log10 of Kd in nM, estimated from mating counts; low values are strong binders.
A pair that was not seen in that replicate is written "ND"; this usually means weak binding, but a binder can also be missed.
For reference, the parent read 1.86 as the reference entry and 0.88 as a member of this library.
As a blank, each scFv also met three strains without target: over library AAYL51, 21% of these pairings were detected, typically at 4.54 and seldom below 3.26. Also given: how often the same scFv was detected with the empty control strains, with their mean in brackets.

changes,"log10 Kd, replicates",signal with controls
S55M/G56R/S57T,ND / ND / ND,1 of 9 (4.29)
D31Y/G59F/Y105M,ND / ND / ND,2 of 9 (4.50)
G59A/S63R/G103L,4.96 / 4.19 / ND,0 of 9
S52A/W53M/F106T,4.66 / 5.11 / ND,3 of 9 (4.29)
D30C/G59E/D62T,2.62 / 2.23 / 2.43,2 of 9 (3.75)
G26H/W53L/V99D,3.69 / ND / ND,2 of 9 (3.79)
A33H/G103V,ND / ND / ND,1 of 9 (2.70)
D30C/D31S/G104K,5.33 / 6.89 / ND,7 of 9 (4.60)
Y32F/G50H/D62S,ND / 4.50 / ND,0 of 9
Y32I/G56F/G102P,ND / ND / ND,0 of 9
T28W/G56I/I58D,2.10 / 2.45 / 1.87,1 of 9 (3.15)
H35S/G102T,5.20 / 6.58 / ND,6 of 9 (4.34)
F27Q/G50W/G103L,4.11 / ND / ND,2 of 9 (3.39)
M34W/G104P/Y108E,ND / ND / ND,1 of 9 (5.09)
F29Y/N54S/Y105G,4.69 / ND / ND,2 of 9 (5.00)
F27G/F29Q,ND / 4.27 / ND,0 of 9
H35K/V99F/Y105V,ND / ND / ND,1 of 9 (4.34)
F29W/M34A/G50W,3.06 / 5.94 / 4.59,3 of 9 (3.36)
G50W/S63V/Y108P,4.33 / 3.24 / ND,0 of 9
D31Y/N54H/V99E,ND / 3.22 / 2.83,2 of 9 (3.97)
I51F/S52V/G104I,ND / ND / ND,3 of 9 (4.07)
D30V/V64M/D107M,ND / 3.78 / ND,0 of 9
T28A/S55E/G104N,ND / ND / ND,5 of 9 (3.98)
F27N/M34P/I51N,ND / ND / ND,0 of 9
W53C/Y60H/G103H,ND / ND / ND,1 of 9 (4.02)
N54M/K65S/G104E,ND / ND / 4.72,2 of 9 (4.75)
G26T/D30T/G102Y,4.59 / 6.08 / 5.41,3 of 9 (4.87)
W53P/G104F,3.97 / ND / ND,4 of 9 (3.71)
D30C/H35Y/S63H,ND / ND / ND,2 of 9 (3.20)
D31A/A33E/V99N,ND / 3.34 / ND,0 of 9

The last 3 entries again:

changes	log10 Kd, replicates	signal with controls
W53P/G104F	3.97 / ND / ND	4 of 9 (3.71)
D30C/H35Y/S63H	ND / ND / ND	2 of 9 (3.20)
D31A/A33E/V99N	ND / 3.34 / ND	0 of 9

The measurements come from Engelhart et al. 2022 (doi:10.1038/s41597-022-01779-4) through the FLAb antibody collection.